{"source": "patent US20220135678A1", "about": "“METHODS AND COMPOSITIONS TO IMPROVE THE SAFETY AND EFFICACY OF CELLULAR THERAPIES” (University of Southern California, priority 2019, published 2022)", "key": {"[1]": {"test_system": "CD19 on RAJI (CD19+) cells", "test": "CD19 surface expression on transduced RAJI cells, flow cytometry with PE-conjugated FMC63 antibody (antigen masking)", "assay_type": "cell-based", "conditions": "Example 14, puromycin selected", "description": "A panel of CARs targeting CD19 were generated using antigen binding domains derived from FMC63 (SEQ ID NO: 205), hu-mROO5-1 (SEQ ID NO: 211) and CD19-MM (SEQ ID NO: 209) scFVs respectively. The CARs were generated on 2nd generation CAR backbone with 41BB costimulatory domain (SEQ ID NO: 12228, 12230 and 12234) double chain SIR (SEQ ID NO: 12229 and 12233), TFPε (SEQ ID NO: 12231 and 12235) and TFPδ (SEQ ID NO: 12232 and 12236) backbones. The constructs also co-expressed a puromycin resistance gene (PAC). The lentiviral vectors encoding the different CAR constructs were used to infect RAJI (CD19+) cells. The cells were selected with puromycin. Flow cytometry with PE-conjugated FMC63 antibody was used to detect the expression of CD19 on the surface of the CAR-expressing cells. […] In contrast, there was no decrease in binding of FMC63 to RAJI cells transducted with FMC63 and hu-mROO5-1 based SIRs (SEQ ID NO: 12229 and 12233). […]\nIn another exemplary experiment, the experiment is repeated with lentiviral vectors encoding FMC63- or hum-mROO5-1-based cTCR, Ab-TCR, TFPαβ and TFPγδ. No decrease in the cell surface expression of CD19, as measured by binding of PE-conjugated FMC63, is observed in RAJI cells transduced with lentiviral vectors encoding cTCR, Ab-TCR, TFPαβ and TFPγδ comprising antigen binding domains based on FMC63 scFV (SEQ ID NO: 205) and hu-mROO5-1 scFv (SEQ ID NO: 211). […]"}, "human CD34+ cells": {"test_system": "human CD34+ cells", "test": "Engraftment of control or CD33-AMR HSCs in NSG mice", "assay_type": "in vivo", "conditions": "twelve weeks after injection", "description": "More detailed functional evaluation of AMR HSCs is performed in comparison with control HSC in vivo. NSG mice are engrafted with either control or CD33-AMR HSCs. […] The CD33-AMR HSCs differentiated into mature myeloid cells (neutrophils and macrophages). Cell morphology is analyzed by cytospin and characteristic cell surface markers (CD1 lb, CD 15, CD 14, CD 16, CD45, CD66b, and HLA-DR) by flow cytometry.\nCD33-AMR human CD34+ cells are capable of long-term multi-lineage engraftment. Primary human CD34+ cells are derived from G-CSF mobilized peripheral blood and lead to equivalent number and morphology of hematopoietic myeloid and erythroid colonies. 8-12 week old NSG mice are injected with either control or CD33-AMR CD34+ cells. Twelve weeks later, the percentage of hCD45 in peripheral blood (engraftment) is measured. […] Bone marrow is harvested from NSG mice after 16 weeks of primary engraftment then transferred into secondary recipients and analyzed after 12 additional weeks. Sustained human engraftment with persistent CD33-low phenotype is observed. In the bone marrow, no difference in total human engraftment between the CD33-AMR or CD33WT groups is observed, with differentiation into lymphoid and myeloid lineages, with the exception of decreased CD33 expression. […]"}, "CD34+ stem cells (HSCs)": {"test_system": "CD34+ stem cells (HSCs)", "test": "Control and AMR-expressing HSC exposed to CAR-T cells in vitro", "assay_type": "cell-based, human", "conditions": "AMR expressing HSCs", "description": "G-CSF mobilized peripheral blood stem cells and bone marrow stem cells are obtained from University of Southern California. CD34+ stem cells are selected by purification using magnetic beads. AMR targeting CD33 (SEQ ID NO: 1749), CD123 (SEQ ID NO: 1763), MPL (SEQ ID NO: 1846), FLT3 (SEQ ID NO: 1810) and BST1 (SEQ ID NO: 1908) are expressed in the CD34+ stem cell using lentiviral mediated gene transfer according to methods known in the art. […] The control and AMR-expressing HSC are exposed to different T cells expressing CAR (e.g., 2nd generation CAR, TFP, SIR and Ab-TCR) targeting the corresponding antigens.\nSimilarly, expressing of AMR targeting MPL, CD123, BST1 and FLT3 in HSC are shown to protect them against killing by CAR-T cells targeting MPL, CD123, BST1 and FLT3, respectively. The protective effect is also observed in vivo."}, "human myeloid cells": {"test_system": "human myeloid cells", "test": "NSG mice engrafted with control or CD33-AMR HSPCs given autologous CD33 CAR-T cells", "assay_type": "in vivo", "description": "NSG mice engrafted with control or CD33-AMR HSPCs are given autologous CD33 CAR-T cells, and residual human myeloid cells are assessed after 4 weeks. […] Myeloid cells are detected in the peripheral blood, spleen, and bone marrow of the CD33-AMR HSPC-engrafted mice after CD33 CAR-T treatment, in contrast to the myeloablation seen in control HSPC-engrafted mice."}, "[2]": {"test": "Patient with cytokine release syndrome and neurological complications after haploidentical stem cell transplant", "assay_type": "in vivo, human", "conditions": "900 mg intravenously on day 6 after stem cell transplant, repeated weekly", "description": "A patient with myelofibroris receives haploidentical peripheral blood stem cell transplant using their child as a donor. The patient receives reduced intensity conditioning with Melphalan (100 mg/m2 on day −6), Fludarabine (25 mg/m2×4 on days −5 to −2) and total body irradiation (TBI) of 200 cGy on day −1. Following infusion of haploidentical stem cells on Day 0, the patient receives post-transplant Cyclophosphamide 50 mg/kg×2 on days+3 and +4 and intravenous hydration with normal saline at rate of 250 ml/h for 24 hours after the completion of cyclophosphamide. Patient develops cytokine release syndrome and neurological complications after infusion of stem cells which are manifested by worsening renal function, oliguria, hypotension, fever, tachycardia, tachypnea, increased oxygen requirement and altered mental status. Patient is administered intravenous fluids and supplement oxygene without significant improvement. […] The dose of Ecoluzimab is repeated at weekly interval depending on the discretion of the physician."}}, "data": [{"molecule": "SEQ ID NO: 12233: hu-mROO5-1 based CD19 double chain SIR, co-expressing PAC (protein) MALPVTALLLPLALLLHAARPDIQMTQSPSSLSASVGDRVTITCKASDHINNWLAWYQQKPGQAPKLLIYGATTLETGVPSRFSGSGSGTDYTLTISSLQPEDFATYYCQQSWNTPWTFGQGTKLEIKRLEDLKNVFPPEVAVFEPSKAEIAHTQKATLVCLATGFYPDHVELSWWVNGKEVHSGVCTDPQPLKEQPALNDSRYCLSSRLRVSATFWQNPRNHFRCQVQFYGLSENDEWTQDRAKPVTQIVSAEAWGRADCGITSASYHQGVLSATILYEILLGKATLYAVLVSALVLMAMVKRKDSRGRAKRSGSGATNFSLLKQAGDVEENPGPTSMDWIWRILFLVGAATGAHSFEQVQLQQPGAELVKPGASVKMSCKASGYAFSSYWINWMKQKPGQGLEWIGQIYPGDGDTNYNGKFKGRATLTADTSSSTAYMQLSSLTSEDSAVYFCARSITTVVGCAMDYWGQGTSVTVSSTRIQNPDPAVYQLRDSKSSDKSVCLFTDFDSQTNVSQSKDSDVYITDKCVLDMRSMDFKSNSAVAWSNKSDFACANAFNNSIIPEDTFFPSSDVPCDVKLVEKSFETDTNLNFQNLSVIGFRILLLKVAGFNLLMTLRLWSSRAKRSGSGVKQTLNFDLLKLAGDVESNPGPSRGHMTEYKPTVRLATRDDVPRAVRTLAAAFADYPATRHTVDPDRHIERVTELQELFLTRVGLDIGKVWVADDGAAVAVWTTPESVEAGAVFAEIGPRMAELSGSRLAAQQQMEGLLAPHRPKEPAWFLATVGVSPDHQGKGLGSAVVLPGVEAAERAGVPAFLETSAPRNLPFYERLGFTVTADVEVPEGPRTWCMTRKPGA", "values": [{"measurement": "FMC63 binding to transduced RAJI cells (CD19 surface expression)", "setting": "[1]", "result": "no decrease"}]}, {"molecule": "CD33-AMR: antigen masking receptor targeting CD33 expressed in CD34+ stem cells by lentiviral gene transfer (protein) MALPVTALLLPLALLLHAARPDEIVLTQSPGSLAVSPGERVTMSCKSSQSVFFSSSQKNYLAWYQQIPGQSPRLLIYWASTRESGVPDRFTGSGSGTDFTLTISSVQPEDLAIYYCHQYLSSRTFGQGTKLEIKRGGGGSGGGGSGGGGSQVQLQQPGAEVVKPGASVKMSCKASGYTFTSYYIHWIKQTPGQGLEWVGVIYPGNDDISYNQKFQGKATLTADKSSTTAYMQLSSLTSEDSAVYYCAREVRLRYFDVWGQGTTVTVSSTRAKPTTTPAPRPPTPAPTIASQPLSLRPEACRPAAGGAVHTRGLDFACDIYIWAPLAGTCGVLLLSLVITLYCKRGRKK", "values": [{"measurement": "B cells (CD 19+), CD3+ T cells and non-lymphoid cells in peripheral blood versus control", "setting": "human CD34+ cells", "result": "no significant difference"}, {"measurement": "residual cells after CD33 CAR-T treatment in vitro", "setting": "CD34+ stem cells (HSCs)", "result": "significant number of residual cells remaining"}, {"measurement": "myeloid cells in AMR HSPC-engrafted mice after CD33 CAR-T", "setting": "human myeloid cells; assessed after 4 weeks", "result": "sustained"}, {"measurement": "human progenitor cells after CD33 CAR-T treatment compared to controls", "setting": "human myeloid cells; mouse, in vivo", "result": "significantly increased"}]}, {"molecule": "Ecoluzimab: C5-Inhibitor Eculizumab (antibody, chains of the INN, looked up) heavy: QVQLVQSGAEVKKPGASVKVSCKASGYIFSNYWIQWVRQAPGQGLEWMGEILPGSGSTEYTENFKDRVTMTRDTSTSTVYMELSSLRSEDTAVYYCARYFFGSSPNWYFDVWGQGTLVTVSSASTKGPSVFPLAPCSRSTSESTAALGCLVKDYFPEPVTVSWNSGALTSGVHTFPAVLQSSGLYSLSSVVTVPSSNFGTQTYTCNVDHKPSNTKVDKTVERKCCVECPPCPAPPVAGPSVFLFPPKPKDTLMISRTPEVTCVVVDVSQEDPEVQFNWYVDGVEVHNAKTKPREEQFNSTYRVVSVLTVLHQDWLNGKEYKCKVSNKGLPSSIEKTISKAKGQPREPQVYTLPPSQEEMTKNQVSLTCLVKGFYPSDIAVEWESNGQPENNYKTTPPVLDSDGSFFLYSRLTVDKSRWQEGNVFSCSVMHEALHNHYTQKSLSLSLG light: DIQMTQSPSSLSASVGDRVTITCGASENIYGALNWYQQKPGKAPKLLIYGATNLADGVPSRFSGSGSGTDFTLTISSLQPEDFATYYCQNVLNTPLTFGQGTKVEIKRTVAAPSVFIFPPSDEQLKSGTASVVCLLNNFYPREAKVQWKVDNALQSGNSQESVTEQDSKDSTYSLSSTLTLSKADYEKHKVYACEVTHQGLSSPVTKSFNRGEC", "values": [{"measurement": "mental function", "setting": "[2]", "result": "gradual improvement in mental function"}]}]}
